Measurements published in patent EP4843986A1, “ANGIOTENSIN II RECEPTOR ANTAGONIST AND USE THEREOF IN TREATMENT OF PERIPHERALLY-INDUCED NEUROPATHIC PAIN” (dated 2026).

Columns and labels:
[1] = tested on: SD rat spinal nerve ligation model; experiment: Rat spinal nerve ligation (SNL) model, mechanical allodynia (Von Frey); details: 200 mg/kg intragastric; at 2 h after administration; Day 14 post-surgery; vs vehicle control
Experimental: (§1) SD rats were fully anesthetized via intraperitoneal injection of sodium pentobarbital (50 mg/kg). The lumbar surgical region of each animal was shaved, and the skin was disinfected three times with iodophor and 70% ethanol. Surgery was initiated once the skin had dried, and aseptic operations were adopted throughout the surgical procedure. The left L5 and L6 spinal nerves were isolated and tightly ligated with 6-0 silk sutures. The wound was sutured to complete the establishment of the rat SNL model.
(§2) Starting on day 11 post-surgery, animals were acclimated to the experimental environment for 15 minutes per day over 3 consecutive days.
(§3) On Day 13 post-surgery, the baseline mechanical allodynia threshold of the rats was measured. […]
(§4) On Day 14 post-surgery, mechanical allodynia tests were performed using Von Frey filaments at 0 hour before administration, as well as at 2, 4, and 6 hours after administration. Mechanical allodynia was quantified as the paw withdrawal threshold (PWT) in rat behavioral tests and was calculated using the formula below: 50% response threshold(g) = (10^((Xf+kδ)))/10,000 [formula] […]
(§5) Data were collected using Excel software. Data were analyzed using Prism 6.01 (GraphPad Software, Inc.) (two-way ANOVA followed by Bonferroni multiple comparison test).

[2] = tested on: SD rat model of chronic constriction injury of the sciatic nerve; experiment: Rat chronic constriction injury (CCI) of the sciatic nerve model, mechanical allodynia (Von Frey); details: 200 mg/kg intragastric; at either 2 h or 4 h after administration; vs vehicle control
Experimental: as §1, with “sciatic nerve was isolated,” for “L5”, “four loose ligatures” for “L6 spinal nerves”, “tied approximately 7 mm upstream proximal to the nerve bifurcation” for “isolated and tightly ligated”, “4-0 chromic catgut sutures, spaced about 1 mm apart.” for “6-0 silk sutures.”, “CCI” for “SNL”
as §2, §3, §4, §5

[3] = tested on: rat diabetic foot pain model; experiment: Rat diabetic foot pain model induced by high-fat and high-sugar diet combined with STZ (Von Frey, 50% PWT); details: 100 mg/kg oral gavage; at 2, 4, and 6 hours after administration; vs vehicle control
Experimental: Rats were acclimated for one week. After being fed a high-fat and high-sugar diet for 4 weeks, plantar pain testing was performed once using Von Frey filaments in rats, and rats with a value higher than 10 g were screened out. The rats were fasted for 16 hours with free access to water, followed by a single intraperitoneal injection of STZ at 40 mg/kg (for rats weighing 220-250 g) or 50 mg/kg (for rats weighing 180-220 g). After 72 hours, random blood glucose was detected. Blood glucose ≥16.7 mmol/L indicated successful establishment of diabetic model. Rats as successfully established diabetes models were subjected to plantar pain testing training using Von Frey filaments once a week. After 4 or 5 weeks, rats whose 50% PWT fell within the range of 1-6 g were selected as diabetic foot pain model animals. The rats were randomly divided into 7 groups based on the pre-dosing pain threshold: vehicle control (ddH2O), gabapentin 100 mg/kg, A1 (12.5, 25, 50, 100, and 200 mg/kg), with 10 rats per group. The administration volume was 10 mL/kg, and all test articles were given via oral gavage. Pain testing was performed using Von Frey filaments at 2, 4, and 6 hours after dosing, and pharmacodynamic efficacy was evaluated based on the change in 50% PWT of the rats. […]
All measurement data were expressed as mean + SEM. […]

[4] = tested on: mouse spared nerve injury (SNI) model; experiment: Mouse spared nerve injury (SNI) model, paw withdrawal threshold (Electronic von Frey); details: 50 mg/kg intragastric; at both 2 h and 4 h after administration; vs vehicle control
Text: • 1) Mice were fully anesthetized via isoflurane inhalation and fixed in a prone position on an operating table to fully expose the lateral gluteal region. Hair on the left hind limb was shaved, and the skin was disinfected via an alcohol wipe. Aseptic operations were adopted throughout the surgical procedure. For the SNI surgery group: An incision was made parallel to the sciatic nerve along the femur to expose the sciatic nerve trunk until tibial nerve, common peroneal nerve, and sural nerve are visible. The tibial nerve and common peroneal nerve were tightly ligated with absorbable surgical suture (8-0). […] The remaining mice were randomly divided into 5 groups (SNI model groups) according to their body weights and PWT values: vehicle control (sterile water for injection), Gabapentin 50 mg/kg, A1 50 mg/kg, A1 100 mg/kg, and A1 200 mg/kg, with 12 mice per group and an intragastric administration volume of 10 mL/kg. • 4) On day 12 post-surgery, paw withdrawal thresholds were measured using an Electronic von Frey Anesthesiometer at 0 h before administration, 2 h after administration, and 4 h after administration. […] The reading recorded by the instrument at this moment was defined as the mechanical pain reaction threshold in grams. […]
The experimental results were expressed as mean ± standard deviation. Data of each group were statistically analyzed using GraphPad Prism 8.0 software package. […]

COc1ccc2c(c1OCc1ccccc1)C[C@@H](C(=O)O)N(C(=O)C(c1ccccc1)c1ccccc1)C2
spinal nerve ligation-induced mechanical allodynia (PWT) [1]: significantly inhibited
mechanical allodynia induced by sciatic nerve constriction (PWT) [2]: failed to inhibit

NCC1(CC(=O)O)CCCCC1
diabetes-induced peripheral neuralgia (50% PWT) [3]: significantly alleviated
sciatic nerve injury-induced mechanical allodynia (PWT) [4]: inhibited
